This is an account of results in publication PMC8705693, “Roles of the Na^+/H^+ Exchanger Isoform 1 and Urokinase in Prostate Cancer Cell Migration and Invasion” (International Journal of Molecular Sciences, 2021).

Chains of the proteins cited; added tags and fusions are not shown.
UniProt P19634, whole entry: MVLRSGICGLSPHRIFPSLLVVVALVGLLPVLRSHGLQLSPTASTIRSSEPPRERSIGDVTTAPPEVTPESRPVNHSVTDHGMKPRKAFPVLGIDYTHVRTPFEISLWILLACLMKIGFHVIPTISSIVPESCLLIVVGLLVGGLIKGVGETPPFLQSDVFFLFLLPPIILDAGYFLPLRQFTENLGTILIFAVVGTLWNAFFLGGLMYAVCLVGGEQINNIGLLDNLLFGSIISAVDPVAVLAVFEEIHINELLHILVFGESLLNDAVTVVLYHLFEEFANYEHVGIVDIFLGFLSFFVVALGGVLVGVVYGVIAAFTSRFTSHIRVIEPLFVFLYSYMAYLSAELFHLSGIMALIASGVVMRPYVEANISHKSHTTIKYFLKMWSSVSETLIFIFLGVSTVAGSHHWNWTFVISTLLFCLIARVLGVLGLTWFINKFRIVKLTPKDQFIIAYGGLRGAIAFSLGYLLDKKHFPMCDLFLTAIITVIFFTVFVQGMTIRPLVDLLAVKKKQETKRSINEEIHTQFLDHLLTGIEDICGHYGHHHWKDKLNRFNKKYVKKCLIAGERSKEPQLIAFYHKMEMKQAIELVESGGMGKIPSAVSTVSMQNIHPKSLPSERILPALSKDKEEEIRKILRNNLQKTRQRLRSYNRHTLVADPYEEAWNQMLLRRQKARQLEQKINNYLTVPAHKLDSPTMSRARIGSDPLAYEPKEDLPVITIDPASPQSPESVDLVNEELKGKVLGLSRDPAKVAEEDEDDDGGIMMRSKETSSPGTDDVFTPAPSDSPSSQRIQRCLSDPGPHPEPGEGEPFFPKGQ

One assay has as its target NHE1 (Homo sapiens, UniProt P19634). Kind of assay: Na+/H+ exchanger activity, double ammonium chloride pulse assay in DU 145 cells. The note with it: for IC50: read-out: Potency (IC50) towards NHE1, double-pulse assay. As for the experimental part: (§1) We next tested the efficacy of a new family of NHE inhibitors on the activity of the NHE1 protein in DU 145 cells. In order to do this, we used a double-pulse assay, in which there were two consecutive ammonium-chloride-induced acidifications. The rate of recovery in the second pulse in the presence of the inhibitor was measured relative to that of the first pulse in the absence of the inhibitor. In control experiments, we observed that the second pulse, in the absence of the inhibitor, was equivalent to that of the first (Figure 3A). […] A summary of the results is shown in Figure 3C–G, [32] and a summary of the IC50 values can be found in Table 1. The various compounds tested had differing potencies towards NHE1 activity. […] EMD87580 was equivalent in potency to AA1-111 (0.45 µM). Figure 3C–G also show the inhibition of uPA activity for each compound on the same plots (red line), assayed as indicated in the Section 4. […] (Table 1).
Figure 3 Characterization of the effects of pharmacological compounds on the activity of the Na^+/H^+ exchanger using the double-pulse assay. Na^+/H^+ exchanger activity was determined as described in Figure 2 and in the Section 4, using a dual ammonium chloride pulse assay. The rate of recovery in the first pulse, in the absence of the drug, was measured. This was compared to the rate of recovery in the second pulse, in the presence of the drug. When both pulses were in the absence of the drugs, the two recoveries were equivalent. (A) A double-pulse assay; the second pulse was treated with vehicle only (no drug). (B) A double-pulse assay wherein the second pulse was in the presence of 10 µM BB2-50F. (C–G) A summary of the results of the double-pulse Na^+/H^+ exchanger assays (black line) for the compounds AA1-135, AA1-111, BB2-30F, BB2-50F, and EMD87580, respectively (IC50 values in Table 1). Additionally, the same figures (C–G) show the effects of these compounds on uPA activity (red line), assayed as describe d in the Section 4.
Intracellular pH was measured using 2′,7-bis(2-carboxyethyl)-5(6) carboxyfluorescein acetoxymethyl ester (BCECF-AM), in a similar manner to that described in [29]. DU 145 cells were grown to ~80–90% confluence on glass coverslips. Cells were loaded with BCECF and fluorescence was measured using a PTI Deltascan spectrofluorometer. NHE1 activity was measured after inducing an acute acid load using ammonium chloride. This was achieved by addition of ammonium chloride (50 mM × 3 min), followed by removal to induce acute acidosis. ΔpH/s was measured during the first 20 s of recovery in NaCl-containing medium (135 mM NaCl, 5 mM KCl, 1 mM MgCl2, 1.8 mM CaCl2, 5.5 mM glucose, and 10 mM HEPES, pH = 7.4, 37°). A calibration curve of pHi fluorescence was performed for every sample using nigericin [60]. For testing of the effects of inhibitors on NHE activity, a double ammonium chloride pulse protocol was used. Cells were subjected to one cycle of acidification using ammonium chloride, and then were allowed to recover in the absence of a drug, with vehicle where appropriate. Then, another cycle of acidification and recovery followed, with the drug present in both the sodium-free and normal recovery buffers. IC50 values were calculated as described previously. The measurements were highly reproducible, with activity in the second pulse averaging 98.2 +/− 7.15% of that in the first pulse. The results are the mean ± S.E. of at least seven experiments. The statistical significance was determined via the Wilcoxon–Mann–Whitney test.

Another assay addresses uPA (Homo sapiens, UniProt P00749). The assay can be described thus: uPA activity assay. The note with it: for IC50: read-out: Potency (IC50) towards uPA. As for the experimental part:
as §1
Synthesis of NHE1/uPA inhibitors was as described previously, as was the determination of uPA activity, where each compound was described as the number in parentheses: BB2-50F (5), BB2-30F (26), AA1-111 (29), and AA1-135 (30).

In assay [1] the test system is DU 145 cells. The assay can be described thus: Cell migration, wound-healing assay. As to conditions: for cell migration (gap closure): wild-type DU 145; for cell migration: DU 145. The protocol: Figure 4 Effects of NHE1-KO or NHE1 inhibition on cell migration examined in wild-type (WT) and NHE1-knockout (KO) DU 145 cells. The rate of closure of the induced gap was evaluated using the wound-healing assay, as described in the Section 4. (A) Examples of the effects of NHE1-KO on wound closure. Upper panel: example of WT DU 145 cells with gaps at 0 and 24 h. Middle panel: example of DU 145 NHE1 KO cells at 0 and 24 h. Lower panel: example of RI cell growth. (B) Summary of results; * indicates significant differences from the same group at 0 h, p < 0.05, n ≥ 6. (C,D) Effects of different concentrations of various NHE1/uPA inhibitors on migration (gap closure) of DU 145 cells. CT: control; EMD: EM87580; other compounds are as names. (C) Summary of the effects of 2 µM of various compounds on the migration of wild-type DU 145 cells. (D) Summary of the effects of 10 µM of various compounds on the migration of wild-type DU 145 cells (BB2-30F was used at 30 µM); * indicates significant differences from untreated control cells at p < 0.05.
Cell migration was studied using a wound-healing assay similar to that described in [13]. Briefly, cells were seeded in 12-well plates ([…]) the day before assay, and then grown to a confluent monolayer. A “scratch” was created in the cell monolayer with a p20 pipette tip in a straight line. The cells were washed twice with PBS to remove the debris, and the medium was changed to 2 mL of growth medium. To obtain the same field during image acquisition, three crosses were marked on the outside of each well as a reference. The scratch gaps above and below the crosses were measured. We acquired six images of the scratch for each well using a Leica DM IRB microscope (at 10× magnification). Arbitrary measurements of gap closure were quantified using Image-Pro Plus software. A minimum of six images/well and five measurements/image were acquired for each treatment; all treatments were repeated at least three times. Data shown are representative of the decrease in gap distance at 24 h, compared to the initial measurement at 0 h. Compounds were added at the indicated concentrations.

The test system of assay [2] is DU 145 cells. Kind of assay: Cell growth assay (cell counting). As to conditions: 48 h, 10 µM. As for the experimental part: Cell growth was measured in wild-type DU 145, NHE1-KO, and RI cells. Cells were plated into 24-well plates and grown in 10% serum medium overnight before assay, and were approximately 50% confluent. Four wells of growing cells were washed twice with PBS, and then 0.25% trypsin-EDTA was added to detach the cells. After brief centrifugation, the cell pellets were resuspended in 1 mL of medium, and then cells were counted with a microscope using a hemocytometer. The initial cell numbers were obtained during the day. The balance of the cells was detached 24 and 48 h later and counted using the same method. A minimum of four repeats were performed for each experiment; all treatments were replicated at least three times.

Assay [3] deals with DU 145 cells. Kind of assay: Anchorage-dependent colony formation. The note with it: 8 days. As for the experimental part: To examine anchorage-dependent colony formation, we used 60 mm polystyrene dishes that had been coated to introduce hydrophilic groups producing a standard growth surface (Sarstedt, Numbrecht, Germany). To measure anchorage-dependent colony growth, the cells were plated into in the 60 mm dishes at a density of 1000 cells per dish. They were grown in complete growth media. To examine the effects of various compounds, 2–30 µM of the indicated drugs were added to culture dishes. An equal volume of DMSO (vehicle) alone was added to otherwise-untreated controls. After growth for 8 days, colonies were fixed in ice-cold methanol; they were stained with 0.5% crystal violet in methanol and washed, and then left to air-dry. The colonies of > 50 cells/colony were imaged and counted. The number of […] colonies was normalized to the number of control colonies and presented as a percentage of control colonies formed.

The test system of assay [4] is established transformed human cell lines. The note with it: read-out: half-maximal inhibition of cell viability; panel of established transformed human cell lines; cited from earlier work.
A further assay deals with HT1080 cells. Kind of assay: Tumor cell invasion in vivo, chick chorioallantoic membrane model. The note with it: final concentration 0.5 µM in chick embryo, intravenous. The protocol: Our next set of experiments used a different cell line and an in vivo model. We examined whether BB2-30F was capable of blocking tumor cell invasion from primary tumors in vivo, utilizing our previously established chick chorioallantoic membrane model of human cancer progression. HT1080 cells were allowed to grow tumors for 4 days, and the drug treatment with BB2-30F was started 1 day after tumor cell inoculation. […] In contrast, treatment with a final concentration of 0.5 µM BB2-30F produced near-complete inhibition of tumor cell invasion (Figure 7a,b).
Fertilized White Leghorn chicken eggs were obtained from the University of Alberta’s Poultry Research Centre and maintained in a humidified incubator at 38 °C. After four days of incubation, embryos were removed from their shells using a Dremel rotary tool with a cutting wheel. They were maintained as previously described under shell-less conditions, in a covered dish in a humidified air incubator at 38 °C and 60% humidity, until 10 days post-fertilization. […]
For imaging, a Nikon A1r upright confocal microscope (Nikon) fitted with a temperature-regulated enclosure and a 10× objective was used (591 nm laser). […] These experimental data were plotted and analyzed for statistical significance using the Prizm analysis module.

SMILES strings stand for the structures.

With `N=C(N)NC(=O)c1nc(-c2cc3ccccc3o2)c(N2CCCCCC2)nc1N`, at NHE1 (2 µM), the “NHE1 inhibition (in words)” value was “only partial inhibition of NHE1”. Also, at NHE1 (10 µM, DU 145 cells), the “rate of recovery after acute acidosis induced by ammonium chloride, second pulse in the presence of the inhibitor” value is on record as “greatly reduced”. For the same molecule, the IC50 was 790 nM on NHE1 (DU 145 cells), 240 nM on uPA and 4000 to 13000 nM in assay [4]. The “inhibition of uPA activity (in words)” value at uPA was “much higher potency”. The “uPA inhibition (in words)” value on uPA (2 µM) is recorded as “good inhibition of uPA”. The “cell migration (gap closure)” value in the assay on DU 145 cells [1] (10 µM, 12 h) is “slight but non-significant effects”; with DU 145 cells [1] (10 µM, 24 h), “significant”. For the same molecule, the “growth of DU 145 cells” value in the assay with DU 145 cells [2] is given as “slight significant effect”. For the same molecule, the results for the anchorage-dependent colony formation entry in the assay with DU 145 cells [3] (2 µM) and with DU 145 cells [3] (10 µM) were “not at 2 µM” and “inhibitory to colony formation”, respectively.

Consider `N=C(N)NC(=O)c1nc(Cl)c(N2CCOCC2)nc1N`, for which the “NHE1 inhibition (in words)” value on NHE1 (2 µM) is “complete NHE1 inhibition”; on NHE1 (10 µM) it was “completely inhibited NHE1”. The IC50 came to 450 nM at NHE1 (DU 145 cells) and 12100 nM on uPA. For the same molecule, on uPA, the “inhibition of uPA activity (in words)” value was “lower potency”. Also, the figures for the “uPA inhibition (in words)” value on uPA (2 µM) and at uPA (10 µM) were “minimal inhibition of uPA” and “only minimal inhibition of uPA activity”, respectively. The “cell migration (gap closure)” value in the assay with DU 145 cells [1] (2 µM, 12 h) is reported as “significantly slowed cell migration”; in the assay with DU 145 cells [1] (2 µM, 24 h), “not statistically significant”; in the assay on DU 145 cells [1] (10 µM, 12 h), “slight but non-significant effects”. In addition, in the assay with DU 145 cells [1] (2 µM), the cell migration result is “reduced cell migration slightly”. Moreover, in the assay with DU 145 cells [3] (10 µM), the anchorage-dependent colony formation entry is listed as “no effect”.

`COc1ncc(-c2nc(C(=O)NC(=N)N)c(N)nc2N2CCCCCC2)cn1`: the “NHE1 inhibition (in words)” value at NHE1 (2 µM) was “low inhibition of NHE1”; on NHE1 (10 and 30 µM), “only partial”. Moreover, the results for the IC50 on NHE1 (DU 145 cells) and at uPA were 7200 nM and 90 nM, respectively. In addition, the “inhibition of uPA activity (in words)” value on uPA is recorded as “much higher potency”. The “uPA inhibition (in words)” value on uPA (2 µM) is “good inhibition of uPA”; at uPA (10 and 30 µM) it was “typically complete”. For the same molecule, the “cell migration (gap closure)” value in the assay with DU 145 cells [1] (30 µM, 12 and 24 h) is “only very slight, non-significant effects”. The anchorage-dependent colony formation result with DU 145 cells [3] (10 µM) and in the assay on DU 145 cells [3] (30 µM) was “inhibited colony formation” in each case. Moreover, in the assay with HT1080 cells, the “tumor cell invasion from primary tumors” value is “near-complete inhibition of tumor cell invasion”.

As to `N=C(N)NC(=O)c1nc(Cl)c(N2CCCOCC2)nc1N`, the “NHE1 inhibition (in words)” value on NHE1 (2 µM) was “complete NHE1 inhibition”; at NHE1 (10 µM), “completely inhibited NHE1”. In addition, the IC50 at NHE1 (DU 145 cells) came to 90 nM; on uPA, 5100 nM. At uPA, the “inhibition of uPA activity (in words)” value is reported as “lower potency”. The “uPA inhibition (in words)” value at uPA (2 µM) was “minimal inhibition of uPA”; on uPA (10 µM), “only minimal inhibition of uPA activity”. Besides, in the assay on DU 145 cells [1] (2 µM), the cell migration result is on record as “lack of effect”. In addition, the “cell migration (gap closure)” value in the assay on DU 145 cells [1] (10 µM, 12 h) was “slight but non-significant effects”; with DU 145 cells [1] (10 µM, 24 h), “only very slight, non-significant effects”. In addition, the anchorage-dependent colony formation result with DU 145 cells [3] (10 µM) is reported as “no effect”.
